Drawing on patent US4277479A, “Tetrazolylalkoxycarbostyril derivatives and pharmaceutical compositions containing them” (Otsuka Pharmaceutical Co., Ltd., priority 1978, dated 1981), this text covers inhibition for one molecule.

For this assay, the target named is T1, cyclic AMP phosphodiesterase (Oryctolagus cuniculus, UniProt G1ST54).
T1 construct: the supernatant was collected to use it as a crude enzyme solution; from tissue; host or cells: rabbit platelets (from platelet-rich plasma)
T1 sequence (G1ST54 1-1128): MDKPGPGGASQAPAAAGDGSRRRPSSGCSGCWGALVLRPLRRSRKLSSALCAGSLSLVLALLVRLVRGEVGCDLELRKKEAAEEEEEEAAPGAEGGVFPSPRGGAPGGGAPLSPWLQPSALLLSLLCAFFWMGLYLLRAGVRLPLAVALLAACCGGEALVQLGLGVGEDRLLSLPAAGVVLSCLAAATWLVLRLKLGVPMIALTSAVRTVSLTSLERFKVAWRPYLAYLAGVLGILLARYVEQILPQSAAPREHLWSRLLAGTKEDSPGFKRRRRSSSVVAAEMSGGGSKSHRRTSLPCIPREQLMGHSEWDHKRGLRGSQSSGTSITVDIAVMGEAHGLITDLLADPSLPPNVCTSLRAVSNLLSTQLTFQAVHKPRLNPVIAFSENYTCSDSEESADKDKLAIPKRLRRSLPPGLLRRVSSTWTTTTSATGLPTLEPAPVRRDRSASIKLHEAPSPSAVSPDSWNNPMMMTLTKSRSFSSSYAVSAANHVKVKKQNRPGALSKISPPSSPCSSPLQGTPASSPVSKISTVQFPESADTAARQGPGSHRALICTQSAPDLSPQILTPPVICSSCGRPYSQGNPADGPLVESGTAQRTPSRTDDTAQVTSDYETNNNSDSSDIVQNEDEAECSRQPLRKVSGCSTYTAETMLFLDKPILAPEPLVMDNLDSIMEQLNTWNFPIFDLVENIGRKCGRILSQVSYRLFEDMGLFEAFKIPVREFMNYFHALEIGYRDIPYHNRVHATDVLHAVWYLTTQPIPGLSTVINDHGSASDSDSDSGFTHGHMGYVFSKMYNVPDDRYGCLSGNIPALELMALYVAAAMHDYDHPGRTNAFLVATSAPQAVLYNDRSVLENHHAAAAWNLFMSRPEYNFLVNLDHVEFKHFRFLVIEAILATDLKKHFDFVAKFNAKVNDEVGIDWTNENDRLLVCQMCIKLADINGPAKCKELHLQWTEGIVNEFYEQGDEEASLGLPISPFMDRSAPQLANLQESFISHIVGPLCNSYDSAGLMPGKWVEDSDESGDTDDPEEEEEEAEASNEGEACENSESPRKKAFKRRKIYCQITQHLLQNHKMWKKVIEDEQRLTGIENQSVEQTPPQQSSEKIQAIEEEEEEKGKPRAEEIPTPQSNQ
The experiment in a line: Obstructive action against cyclic AMP phosphodiesterase. It is filed as biochemical, rabbit. On the set-up: inhibition: dose or concentration left out as unconfirmed. Particulars: read-out: Phosphodiesterase obstruction rate. As for the experimental part:
(Test of obstructive action against cyclic AMP phosphodiesterase)
The obstructive action against cyclic AMP phosphodiesterase was measured according to the activity measuring method described in "Biochimica et Biophysica Acta", Vol. 429, pp. 485-497 (1976) and "Biochemical Medicine", Vol. 10, pp. 301-311 (1974).
That is, for determining the obstructive activity against cyclic AMP phosphodiesterase, 10 ml of a solution obtained by adding 1 mmol of MgCl2 into 50 mmol of tris-hydrochloric acid buffer with pH 7.4 was added to the platelets obtained by further centrifuging the above-said rabbit PRP at 3,000 r.p.m. for 10 minutes, and the suspended platelets were ground by a Teflon potter type homogenizer. This was followed by two times of freezing and thawing treatment and 300-second fracturing with 200 watt supersonic waves. After additional 60-minute centrifugation with 100,000 g, the supernatant was collected to use it as a crude enzyme solution. […]
The reaction system was then immersed in boiling water for 2 minutes to stop the reaction, and then this reaction solution was cooled in ice water and, for converting the produced tritium 5'-AMP into tritium adenosine, the solution was added with 0.05 ml (1 mg/ml) of snake poison as 5'-nucleotidase and reacted at 30° C. for 10 minutes. […] The whole quantity of the elutant was added with 10 ml of a triton-toluene type scintillator and the produced tritium adenosine was measured by a liquid scintillation counter to determine the phosphodiesterase activity.
In this way, the phosphodiesterase activation value (Vs) of the test compounds of the respective concentrations was determined, and the phosphodiesterase obstruction rate (%) was determined from said activation value (Vs) and control value (Vc) (obtained from water not containing any test compound) from the following formula: [formula]

Take `COc1ccc(Cc2nccc3cc(OC)c(OC)cc23)cc1OC` [Papaverine, papaverine, reference compound]: the inhibition worked out at 54.6%, the inhibition at 0.01 µM turned out to be 7.2% and the inhibition at 1 µM stood at 82.4%.
